The list is not random: actives were taken first. Their share in the collection is about 2.2%.
PDI inh: inhibitors of human protein disulfide isomerase | P07237 | PDI insulin aggregation turbidity, A650, 90 min | inhibition, % at 10 µM | 0.052% of 350,000 active;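 active = mean inhibition across replicates of 30% or more, whatever share of single replicates reach that level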
S100A4 inh HTS: blocks human S100A4 binding to myosin IIA peptide | P26447 | S100A4/TAMRA-MyoIIA peptide fluorescence polarization | inhibition, % at 10.7 µM | 0.14% of 360,000 active | AID 652163;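 active = mean inhibition of at least 70% across replicates, with every replicate also reaching that level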
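incubation = readout 5 min after mixing, signal stable up to 60 min | system = S100A4 monomer protein | buffer or medium = HEPES pH 7.2 with CaCl2, KCl, NaCl, DTT, Triton | benchmarks = neutral control DMSO, positive control TFP | also added = fluorescent myosin IIA peptide, 5 nM | compound dosing = one concentration per compound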
SIRT5 block: blocks human SIRT5 desuccinylation of peptide | AID 652115 | 1.1% of 330,000 active | Q9NXA8 | Purified SirT5, succinyl-peptide AMC, trypsin-coupled fluorescence | inhibition, % at 15 µM; in the data active = inhibition above about 15%
FGF22 binding-1: FGF22 (human) thermal shift binding. Q9HCT0. recombinant FGF22 thermal shift, SYPRO orange fluorescence; percent of sucrose octasulfate shift, DMSO zero. activity (Tm shift, normalised), % at 9.99 µM. 1.5% of 340,000 active;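 active = mean Tm shift, scaled 0 neutral to 100 positive control, at about 1.3% or above, every replicate too, limit read from the data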
Yeast UUG start: alters start codon recognition fidelity in yeast; AID 602363; activity score, % at 18.7 µM; 350,000 tested, 0.13% active; S. cerevisiae UUG-firefly luciferase reporter, luminescence/redox ratio;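 active means replicate mean at a twofold rise or more, about +100% in these data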;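 further: firefly luciferase made from a UUG start codon reports start codon fidelity; reporter light over untreated wells divided by growth signal over untreated wells; some hits fall short of that in this replicate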
ERp5 block: blocks human ERp5 reductase activity on insulin; Q15084; ERp5 insulin aggregation, absorbance 650 nm, 90 min; inhibition, % at 9.99 µM; 0.05% of 350,000 active; AID 651711;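 active = mean replicate inhibition above about 25%, with every replicate also reaching it, limit read from the data, passing the limit was not always enough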
FGF22 binding-2: binds human FGF22 shifting its melting temperature; thermal shift activity, °C (ΔTm) at 38 µM; shares compounds with FGF22 binding-1; recombinant FGF22 thermal shift, SYPRO orange fluorescence; 2% of 1,000 active;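 active = fitted rise in melting shift crosses a set limit at or below the top valid dose tested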
FGF22 TSA DP: FGF22 (human) binding by thermal shift | shares compounds with FGF22 binding-1 | Thermal shift assay, SYPRO orange, melting temperature shift | Tm shift (activity), % at 38 µM | 50 tested, under 10 active | AID 743017;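 active = compounds whose fitted dose curve of melting temperature shift rises past a set threshold within the tested doses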
TSA no protein: shows thermal shift signal without protein, FGF22 counter-screen; shares compounds with FGF22 binding-1; compound-only SYPRO orange thermal shift counter-screen, no protein; AC50, µM (titrated, usually from 38 µM); 2% of 1,000 active; AID 743019;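 active = rising signal whose fitted curve reaches the 0.54 level within the top valid dose, showing a melting point, actives reach about 13 µM in these data; inactive = the rest, including activity in the opposite direction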; also: value is where the raw curve crosses a fixed level and not half-maximal
The depositor's hits bear a star; i = inactive; · = no result given; [ ] = dose if it differs, or a comment.

SMILES	PDI inh	S100A4 inh HTS	SIRT5 block	FGF22 binding-1	Yeast UUG start	ERp5 block	FGF22 binding-2	TSA no protein	others
Cc1ccc(S(=O)(=O)Nc2cccc(S(=O)(=O)Nc3ccccc3C(=O)O)c2)c(C)c1	4	-6	1	1.4*	0	-10	-0.06	i
CCC(=O)N1[C@@H](CO)[C@@H]2c3ccccc3N(S(=O)(=O)c3ccccc3)C[C@@H]21	·	-10	-2	0	-7	-2	·	·
CCC(=O)N1[C@@H](CO)[C@@H]2c3ccccc3N(S(=O)(=O)c3ccc(F)cc3)C[C@@H]21	·	18	-3	1.4*	0	2	0.21	i
O=C(Nc1nc(-c2ccccn2)cs1)c1cccc(S(=O)(=O)N2CCOCC2)c1	5	-6	-1	1.5*	-5	-1	-0.095	i
O=C(Nc1nc(-c2ccccn2)cs1)c1cc2ccccc2o1	9	1	-1	1.6*	-69	1	-0.22	i
Cc1ccc(S(=O)(=O)N2CCOCC2)cc1C(=O)Nc1nc(-c2ccccn2)cs1	1	-23	-2	0	·	-3	·	·
O=C(C[C@H]1C[C@@H]2c3cc(NC(=O)NC4CCCC4)ccc3O[C@@H]2[C@H](CO)O1)NCc1ccc2c(c1)OCO2	·	0	1	1.9*	10	-1	-0.076	i
CCC(=O)N1CC2(C1)[C@@H](c1ccccc1)[C@@H](CO)N2Cc1cc(F)ccc1F	·	12	-1	0	·	2	·	·
CCCn1c(=O)[nH]c(=O)c2c1nc(-c1cccs1)n2CCOC	0	1	-7	4.7*	-6	5	0.15	i
CCCn1c(=O)[nH]c(=O)c2c1nc(-c1ccc(C#N)cc1)n2CCOC	-6	0	-48	0	10	-14	·	·
O=S(=O)(Nc1nnc(C(F)(F)F)s1)c1ccc(Cl)cc1	-2	6	0	2.6*	-13	2	·	i	FGF22 TSA DP=0
CC(C)(C)c1nnc(NS(=O)(=O)c2ccc(F)cc2)s1	0	-1	-1	0	-4	4	·	·
Cc1ccc(NC(=O)c2ccc(Cl)c(S(=O)(=O)NCC3CCCO3)c2)c(O)c1 (stereo not drawn)	15	5	2	30*	-8	6	0.18	i
Cc1ccccc1NC(=O)c1ccc(F)c(S(=O)(=O)NCC2CCCO2)c1 (stereo not drawn)	0	3	-1	0	·	-3	·	·
COc1cc(NC(=O)C2CCC(CNS(=O)(=O)c3csc(C(N)=O)c3)CC2)cc(OC)c1 (stereo not drawn)	1	3	2	1.8*	-14	-4	-0.31	i

Next part; the last two above are carried over.
SMILES	PDI inh	S100A4 inh HTS	SIRT5 block	FGF22 binding-1	Yeast UUG start	ERp5 block	FGF22 binding-2	TSA no protein	others
Cc1ccccc1NC(=O)c1ccc(F)c(S(=O)(=O)NCC2CCCO2)c1 (stereo not drawn)	0	3	-1	0	·	-3	·	·
COc1cc(NC(=O)C2CCC(CNS(=O)(=O)c3csc(C(N)=O)c3)CC2)cc(OC)c1 (stereo not drawn)	1	3	2	1.8*	-14	-4	-0.31	i
COc1cccc(NC(=O)C2CCC(CNS(=O)(=O)c3cccc4cccnc34)CC2)c1 (stereo not drawn)	-2	-1	-3	0	11	0	·	·
CCC(=O)N1CC2(C1)[C@H](c1ccc(-c3cccc(C)c3)cc1)[C@@H](CO)N2S(C)(=O)=O	·	-1	-1	4.5*	·	-4	-0.015	i
O=C(NCC[C@@H]1CC[C@H](NC(=O)c2cnccn2)[C@H](CO)O1)Nc1ccc(F)cc1	·	-10	12	9.1*	3	0	0.19[42 µM]	i
O=C(C[C@@H]1CC[C@H](NC(=O)Nc2cc(F)ccc2F)[C@@H](CO)O1)Nc1ccc(-c2ccccc2)cc1	·	2	0	1	19	5	·	·
O=C(NCC[C@@H]1CC[C@@H](NC(=O)C2CCOCC2)[C@@H](CO)O1)Nc1ccc(Cl)cc1	·	-5	-1	1	-10	5	·	·
O=C(NCC[C@@H]1CC[C@H](NC(=O)C2CCOCC2)[C@H](CO)O1)Nc1ccc(Cl)cc1	·	5	0	1.4*	-26	7	0.011[42 µM]	i
O=C(C[C@H]1CC[C@H](NC(=O)Nc2cc(F)ccc2F)[C@@H](CO)O1)Nc1ccc(-c2ccccc2)cc1	·	6	-2	1.6*	-18	1	0.078[42 µM]	i
O=C(N[C@H]1CC[C@@H](CCNS(=O)(=O)c2ccc(F)cc2)O[C@H]1CO)C1CCCC1	·	1	0	9.7*	3	3	0.12[42 µM]	i
COCC#Cc1ccc([C@@H]2[C@@H](CO)N3C(=O)CN(C(=O)C4CCCC4)C[C@H]23)cc1	·	-2	3	·	·	-1	·	·
CCNC(=O)[C@H]1[C@H](CO)[C@H]2Cn3c(ccc(-c4cccc(F)c4)c3=O)[C@H]2N1Cc1nccs1	·	0	-11	0	·	-12	·	·
O=C(Nc1ccc(Cl)cc1)N[C@@H]1CC[C@@H](CCNS(=O)(=O)c2ccccc2F)O[C@H]1CO	·	-36	0	1.6*	14	-5	0.11[42 µM]	i	FGF22 TSA DP=0
O=C(Nc1cc(Cl)cc(Cl)c1)N[C@H]1CC[C@H](CCNS(=O)(=O)c2cccc(F)c2)O[C@@H]1CO	·	13	2	2.4*	5	-4	0.13[42 µM]	i
C[C@H]1CCCCO[C@@H](CN(C)Cc2ccc(C(F)(F)F)cc2)[C@@H](C)CN([C@@H](C)CO)C(=O)c2cc(NC(=O)C3CCCCC3)ccc2O1	·	·	·	0	13	·	·	·
N#C[C@@H]1[C@H](c2ccc(C#CCC3CCCC3)cc2)[C@H](CO)N1C(=O)CN1CCOCC1	·	4	-6	0	8	-2	·	·
N#C[C@H]1[C@@H](c2ccc(C#CCC3CCCC3)cc2)[C@H](CO)N1C(=O)CN1CCOCC1	·	-3	-3	19*	-2	-7	0.21[42 µM]	i
CCSc1nnc(NC(=O)c2ccc(Br)s2)s1	-6	·	·	·	-11	·	·	·
O=C(Nc1nnc(C(F)(F)F)s1)c1ccc(Br)s1	6	2	3	2.0*	-25	0	-0.072	i
C[C@@H]1CCCCO[C@H](CN(C)Cc2ccc(C(F)(F)F)cc2)[C@H](C)CN([C@H](C)CO)C(=O)c2cc(NC(=O)Nc3ccccc3)ccc2O1	·	·	·	-1	21	·	·	·
CCOC(=O)N1CCN(C(=O)CNC(=O)c2nn(-c3ccc(OC)cc3OC)c(=O)c3ccccc23)CC1	-7	0	1	0	-5	3	·	·
CCOC(=O)C1CCN(C(=O)CNC(=O)c2nn(-c3ccc(OC)cc3OC)c(=O)c3ccccc23)CC1	-4	-5	-3	1.6*	18	2	0.054	i
COc1ccc(S(=O)(=O)N(C)C[C@H]2Oc3ncc(C#CC4(O)CCCC4)cc3C(=O)N([C@H](C)CO)C[C@H]2C)cc1	·	-1	0	0	·	-5	·	·
NC(=S)c1cc2ccc(O)cc2oc1=O	6	·	·	·	·	·	·	·

An excerpt from above in order of molar mass, ascending.
SMILES	PDI inh	S100A4 inh HTS	SIRT5 block	FGF22 binding-1	Yeast UUG start	ERp5 block	FGF22 binding-2	TSA no protein	others
O=C(N[C@H]1CC[C@@H](CCNS(=O)(=O)c2ccc(F)cc2)O[C@H]1CO)C1CCCC1	·	1	0	9.7*	3	3	0.12[42 µM]	i
O=C(NCC[C@@H]1CC[C@H](NC(=O)C2CCOCC2)[C@H](CO)O1)Nc1ccc(Cl)cc1	·	5	0	1.4*	-26	7	0.011[42 µM]	i
Cc1ccc(S(=O)(=O)N2CCOCC2)cc1C(=O)Nc1nc(-c2ccccn2)cs1	1	-23	-2	0	·	-3	·	·

Assay outcomes: PubChem, Broad Institute
